Tests used:
[1] = biological target: Glucocorticoid Receptor (GR) (Homo sapiens (Human), UniProt P04150); assay: LanthaScreen TR-FRET GR Competitive Binding Assay (cell free); conditions: read-out: GR Competitive Binding Assay IC50
[2] = biological target: GR activation in 293/PRLR/GRE-Luc cells (HEK293/9xUAS-Luc2P/pBind-GR/PRLR-HA high cells) (UniProt P04150); assay: GR co-activator luciferase reporter cell based assay in 293/PRLR/GRE-Luc cells; parameters: species or system human

Sequences of proteins named here, by UniProt entry; tags and fusion partners are left off. Residues count along the entry.
UniProt P04150, whole entry, looked up: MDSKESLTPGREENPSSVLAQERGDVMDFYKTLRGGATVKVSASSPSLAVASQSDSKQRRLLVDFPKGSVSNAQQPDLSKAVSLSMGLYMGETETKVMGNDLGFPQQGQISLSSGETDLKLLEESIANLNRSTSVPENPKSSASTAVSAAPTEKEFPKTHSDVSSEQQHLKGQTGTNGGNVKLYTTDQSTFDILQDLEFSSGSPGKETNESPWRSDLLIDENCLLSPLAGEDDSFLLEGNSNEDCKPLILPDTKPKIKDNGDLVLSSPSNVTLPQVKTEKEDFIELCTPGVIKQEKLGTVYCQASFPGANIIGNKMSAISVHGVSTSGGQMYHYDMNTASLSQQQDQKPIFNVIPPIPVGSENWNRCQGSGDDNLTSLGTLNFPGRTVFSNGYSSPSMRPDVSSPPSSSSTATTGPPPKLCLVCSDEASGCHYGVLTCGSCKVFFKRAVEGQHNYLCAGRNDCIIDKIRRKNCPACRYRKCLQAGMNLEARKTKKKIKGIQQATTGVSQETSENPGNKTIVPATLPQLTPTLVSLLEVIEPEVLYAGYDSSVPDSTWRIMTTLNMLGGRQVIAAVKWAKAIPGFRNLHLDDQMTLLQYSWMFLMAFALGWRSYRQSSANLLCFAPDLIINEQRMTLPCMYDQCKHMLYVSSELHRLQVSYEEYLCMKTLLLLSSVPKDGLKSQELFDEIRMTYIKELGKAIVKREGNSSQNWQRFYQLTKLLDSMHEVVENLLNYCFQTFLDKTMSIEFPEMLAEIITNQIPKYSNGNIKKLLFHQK
UniProt P04150, 524-758 limits assumed: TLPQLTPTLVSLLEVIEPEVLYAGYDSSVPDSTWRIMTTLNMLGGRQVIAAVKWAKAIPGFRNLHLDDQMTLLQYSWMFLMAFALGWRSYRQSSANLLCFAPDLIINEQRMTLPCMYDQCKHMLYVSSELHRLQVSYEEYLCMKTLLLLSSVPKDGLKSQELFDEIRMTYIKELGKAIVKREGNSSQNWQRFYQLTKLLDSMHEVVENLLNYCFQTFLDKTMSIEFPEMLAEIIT

SMILES	IC50 [1] [nM]	Activation (fold activation relative to Budesonide) in HEK293/9xUAS-Luc2P/pBind-GR/PRLR-HA high cells ([2]; 72 hours of incubation)	EC50 ([2]; read-out: HEK293/9xUAS-Luc2P/pBind-GR/PRLR-HA high cells EC50, 72 hours of incubation) [nM]	HEK293/9xUAS-Luc2P/pBind-GR/PRLR-HA high cells activation relative to Budesonide ([2]; fold activation vs Budesonide)
CCCC1OC2CC3C4CCC5=CC(=O)C=CC5(C)C4C(O)CC3(C)C2(C(=O)COc2ccc(N)c(F)c2)O1 (centres unmarked)	10 to 100	Full activation (Full activation: >75% of fold activation induced by Budesonide)	10 to 100	
C[C@H]1C[C@@H]2[C@H]([C@@H](O)C[C@@]3(C)[C@H]2CC[C@]3(O)C(=O)COc2ccc(N)cc2)[C@@]2(C)C=CC(=O)C=C12	< 10			No

Source: patent US11760775B2, “Steroids and protein-conjugates thereof” (Regeneron Pharmaceuticals, Inc., priority 2016, dated 2023)
